From PMC9623235 (Clinical Cancer Research, 2022)

Tested on: MDA-MB-436 BRCA1m TNBC xenograft
Experiment: MDA-MB-436 BRCA1m TNBC xenograft efficacy
Conditions: 100 mg/kg daily; MDA-MB-436 and HBCx-17 models

**Q.** With `O=C(c1cc(Cc2n[nH]c(=O)c3ccccc23)ccc1F)N1CCN(C(=O)C2CC2)CC1` [olaparib] as the compound, how does the “Time to some tumor regrowth after treatment withdrawal” value read?
**A.** The value was “about 8 weeks”.
